Entries after “also recorded” stand apart in the source; their conditions may differ.
Target: T1, thrombin/antithrombin III interaction (Homo sapiens, UniProt P01008)
T1 construct: purchased Diapharma; West Chester, OH (Chromogenix Coatest assay); host or cells: human plasma (thrombin activity)
Test: Chromogenix Coatest anticoagulant assay
Type: biochemical
Conditions: chromogenic thrombin substrate, absorbance 415 nm, compared to international heparin standard
From the text: A chromogenic assay (based on the thrombin/antithrombin III interaction and bioactivity) that is used diagnostically to assess heparin levels in human blood was used to compare the international heparin standard (black diamonds) to sTestan (black triangle) and Roneparstat (gray circles). The arrow marks the value of the uninhibited control with maximum coagulation in this assay. […] These findings indicate that sTestan is unlikely to cause bleeding side effects.
The Chromogenix Coatest assay (Diapharma; West Chester, OH) was used to measure the effect on thrombin (the clotting factor that converts fibrinogen into fibrin glue) inactivation by antithrombin III. Typically, heparin (here the international heparin standard) is required to effectively reduce the thrombin activity (from human plasma), as measured by absorbance (at 415 nm) of a chromogenic thrombin substrate.

By UniProt entry, the sequences of proteins in these tests, tags left out. Residues count along the entry.
UniProt P01008, 33-464: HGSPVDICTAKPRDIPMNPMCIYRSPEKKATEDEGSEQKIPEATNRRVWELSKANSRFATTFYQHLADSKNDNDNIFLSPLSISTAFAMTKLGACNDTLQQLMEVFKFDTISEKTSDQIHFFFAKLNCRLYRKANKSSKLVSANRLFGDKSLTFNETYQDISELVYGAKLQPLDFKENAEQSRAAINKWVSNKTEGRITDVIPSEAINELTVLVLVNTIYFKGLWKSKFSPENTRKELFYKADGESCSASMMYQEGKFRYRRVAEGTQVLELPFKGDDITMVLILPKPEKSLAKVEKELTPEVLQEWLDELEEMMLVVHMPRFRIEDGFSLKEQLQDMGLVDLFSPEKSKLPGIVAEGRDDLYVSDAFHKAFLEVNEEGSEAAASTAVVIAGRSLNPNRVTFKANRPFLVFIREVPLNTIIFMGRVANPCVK

sulfated or sulfonated testosteronan [sTestan]
anticoagulant activity: no anticoagulant activity even at 20,000-fold higher concentrations than heparin; also recorded: less anticoagulant activity than Roneparstat; also recorded: not be an anticoagulant
